# AlphaSeq binding of Ab-14 light chain variants to a spike HR2 peptide

Target: peptide PDVDLGDISGINAS, taken from heptad repeat 2 (HR2) of SARS-CoV-2 spike.

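Phage display of a naive human antibody library on the peptide gave the parent. These sequences belong to a second round, designed from the earlier measurements on random variants of the parent. Several design methods are mixed in this list. AlphaSeq pools MATa yeast showing the antibodies with MATalpha yeast showing the peptide. The frequency of each diploid, read from paired DNA barcodes, reflects how well the two displayed proteins bind. Scores were corrected for input abundance and mapped to Kd with protein pairs of known affinity run in the same pool. Each pool was mated in six replicate cultures.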

Parent: Ab-14, a human scFv built as VH, a (GGGGS)3 linker, VL. Only the CDRs of the light chain vary.
VH: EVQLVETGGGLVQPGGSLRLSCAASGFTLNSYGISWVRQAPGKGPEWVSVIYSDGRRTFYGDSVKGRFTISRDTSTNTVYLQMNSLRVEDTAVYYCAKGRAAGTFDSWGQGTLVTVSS
VL: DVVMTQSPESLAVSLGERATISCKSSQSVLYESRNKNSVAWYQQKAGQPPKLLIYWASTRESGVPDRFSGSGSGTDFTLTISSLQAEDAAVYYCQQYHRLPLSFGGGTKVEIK

Variants are written as CDR1, CDR2 and CDR3 of the light chain (limits as in the source). Parent: KSSQSVLYESRNKNSVA, WASTRES, QQYHRLPLS. Affinities are written as log10 Kd with Kd in nM; a lower number is a better binder. Averages over replicates are reported, and they cover detected replicates only. An entry "no signal" has no value in the source: the pair was not observed among the diploids in any replicate. This suggests poor binding but is not conclusive. In the paper, a design with two or fewer of six values counts as a poor binder. Empty control strains, which show no peptide, gave a signal in 4% of pairings with all light chain designs; the median was 2.64 and 95% of these signals were weaker than 1.59. No background was subtracted. The range of this assay differs from that of the first round, and the authors advise against merging the two. The parent sequence was in this pool as ten entries: three were never detected, three once, and four in most replicates, with averages from 0.34 to 2.37.

"mean, log10 nM",seen in,CDR-L1,CDR-L2,CDR-L3
0.20,6 of 6,KIGMTLNTLMHQINNVA,DLVEREN,QQYFRLPLS
0.74,6 of 6,SIYDATAMESRNKNPIA,DVSTRPS,QQYDRLPLS
0.21,6 of 6,HIQDARGGLSSQWNSVA,STEERSD,QQYHRLPLS
3.08,4 of 6,KRSQSVLYESRNKNSVA,WASTRES,QQYHRLPLD
0.17,6 of 6,KFSQSGLYESRNKNSVA,EASTRES,QQYHRLPLS
2.41,2 of 6,KLSQSVLYESRNKNSVA,DASTRES,GQYHRLPSS
0.18,6 of 6,KFFQSWLYEQRQVNSVA,NASQRLL,QQYHRLPLS
-0.16,6 of 6,MVNGIMDHLSKQTNNVA,ETVTRET,QQYDRLPLS
-0.37,6 of 6,KLSQSVLYESRNKNSVA,GGSTRES,QQYHRLPLS
-0.31,6 of 6,KLSQSVLYESRQKNSVA,NASTREM,QQYHRLPLS
1.53,5 of 6,KLSQVTHSESRNKNSIA,EMVTREA,QQYDRLPLS
no signal,0 of 6,MLSQMWALGMKAKNSVA,QASMRFE,QQYERLPLI
-0.16,6 of 6,KFQQSWLYESRNKNSVA,NASTRLS,QQYHRLPLS
0.08,6 of 6,KLSQSVLYESGTKNSVA,NASSRES,QQYHRLPLS
0.13,6 of 6,KLSQSWLYLSRNMNAVA,NASQRLS,QQYHRLPLS
0.71,6 of 6,ILMQPYKELGAAKNNIA,DGSIRLD,QQYHRLPLV
-0.35,6 of 6,KVSQSVLYESRNKNAVA,DASQRES,QQYHRLPLS
2.41,5 of 6,IFSQSVLMGNLTRNSVA,QASTRFN,QQYHRLPLI
0.23,6 of 6,KLMCSMEYESRNTNSVA,NASTRES,QQYHRLPLS
0.50,6 of 6,KLSMVTGHSSVSKNNVA,EMETREE,QQYDRLPLS
1.19,4 of 6,KASQSVLYESRNKNSVA,WASTRES,QQMHRLPLS
-0.08,6 of 6,KLYQNVGTMSHNKQSIA,DMERRET,QQYHRLPLS
1.86,6 of 6,KIYMMTGFQYRNADSIA,DNSTRGR,QQYHRLPLS
0.30,6 of 6,KSLQSMLYESRNKNSVA,HASTRED,QQYHQLPLS
1.71,6 of 6,MVTQMAMTGMMSKRSVA,NAETREY,QQYHRLPLI
-0.01,6 of 6,KSSQSWLYESRNKNSVA,EASTREQ,QQYHRLPLS
0.67,6 of 6,MVNGIMDHLSKQTNNVA,ETTTRES,QQYDRLPLQ
0.02,6 of 6,KWSQSVLFESRNKNSVA,DASTRES,QQYHRLPLS
-0.34,6 of 6,AFSQSVLYESRNQNAVA,EASTRCD,QQYHRLPLS
2.15,6 of 6,HFAVNLTSLDSSKQNVA,NASTVMV,QYYNRLPLS
3.08,2 of 6,KNTQSYLYESRNKNSVA,WASTRES,QQYHRLPLS
0.75,6 of 6,VLSGMTNQAMSKHNSVA,NVTMRPD,QQYHRLPLS
1.20,6 of 6,HMSQVTMYGYWVKNSVA,QTSTREE,QQYDRLPLS
no signal,0 of 6,MISQVMNTLTRHGNNVA,DLAEREQ,QQYFRLPLS
0.14,6 of 6,HITMGMYVMGRHNASIA,QAEERAK,QQYDRLPLI
0.57,6 of 6,KLMQSVQYGSRALNSVA,QMETRED,QQYHRLPLS
no signal,0 of 6,IVSQLMLWGMHARNSIA,EAETRIN,QQYERLPLF
1.23,6 of 6,KLVGVDDNDNKPMSAIA,DVNTLDN,QQYFRLPLD
-0.17,6 of 6,KLQQSQLYESRNKNSVA,NASTRLS,QQYHRLPLS
1.11,6 of 6,IISQSMLYESATHNSIA,QTETREE,QQYHHLPLI
no signal,0 of 6,KSSQSVVGESPNKNSVA,WASTRES,QQYHRWPLS
0.87,6 of 6,KSSQSVMGEDWNKNSVA,HASQRES,QQYHRLPLM
1.49,6 of 6,KVHAYTQGVEQDMQNIA,ETSYASR,QQYFRLPLS
-0.11,6 of 6,KLSQSMEYESRNKNSVA,NASQRES,QQYHRLPLS
1.33,6 of 6,KVSQGIFDGERNSHQIA,EVTQLCT,QQYSRLPLE
-0.14,6 of 6,KLSQSVLYESRNKNSVA,GASKRES,QQYHRLPLS
0.69,6 of 6,KMSQSVLYESRNKNPVA,WASTRES,QQYSRLPLS
-0.32,6 of 6,KSSQSWLYESRNKNAVA,GASFRES,QQYHRLPLS
0.93,6 of 6,KVSQAQDYESRNKNSVA,QASHREQ,QQYHRLPLY
0.15,6 of 6,KLSMSVWMWSRNKNSVA,SANTREE,QQYHRLPLS
0.41,6 of 6,KIGMTLNQLMHKKNNVA,DLVERED,QQYHRLPLS
0.30,6 of 6,HLHTIMYTENIGTNSIA,DANLHVD,QQYFRLPIS
0.96,6 of 6,KMFQSWGMEERNVNSVA,HASQRLD,QQYHRLPLS
0.94,5 of 6,KLSMTYRYESENKNSIA,ELVTRMS,QQYHRLPLS
0.32,6 of 6,KLMQSVLYEERNKNSVA,NASQRES,QQYHRLPLS
-0.50,6 of 6,KLEQSFLYESRNKNSVA,NASQRES,QQYHRLPLS
0.82,6 of 6,TIGQVMNWESRNGNSVA,QTSTREE,QDYDRLPLS
-0.11,6 of 6,KLYQSELYESRNKNSVA,NASQRES,QQYHRLPLS
0.68,1 of 6,KSSQSQLYESRNKNSVA,WASTRES,QQYIRLPLS
no signal,0 of 6,KISQMTRVGSTHGNSIA,EEVTRAK,QQYHRLPLA
0.23,6 of 6,KQSQSWLYEDRVKNSVA,GASTRES,QQYHRLPLS
2.34,1 of 6,KSSQSVLYEARNKNSVA,WASTRES,QQYHTMPLS
1.95,6 of 6,KLSQSVLYESNNKNSVA,WASTRCS,QQYHGLPLS
0.02,6 of 6,HVELGTWGVQKYDSSVA,HASQRQE,QQYYQLPLT
0.27,6 of 6,MIKEENIGVGNYQNNIA,DGASTMA,QQYYRLPLA
no signal,0 of 6,KSSQSVGYESRNKNSVA,NASTRES,QQYHILPGS
1.17,6 of 6,MISLCQNGYYDANNSIA,DRNERAM,QQYGRLPLV
2.11,2 of 6,VLQFDHDEWGMYCDNIA,DESCREP,QQYFHLPLI
0.20,6 of 6,MISDLTMYGSRMKNSVA,DLSTRGS,QQYHRLPLS
0.81,6 of 6,KSSQSVLYESRNKNSVA,NASTRES,QQYYRLPLS
0.43,6 of 6,MISDLTMYGSRNVNSVA,DLSTRGS,QQYERLPLS
-0.21,6 of 6,KSSQSELYESRNKNSVA,DASTRES,QQYWRLPLS
0.68,6 of 6,QLGKNQVGETLMQDAIA,HDALRAD,QQYFRLPLL
0.12,6 of 6,KIGATLNLLYEKKNNVA,DLVEREN,QQYHRLPLS

Source: Li et al. 2023 (doi:10.1038/s41467-023-39022-2), MIT Lincoln Laboratory and A-Alpha Bio; data file from the FLAb repository.